Test [1] concerns the target T1, spinach Rubisco (Spinacia oleracea, UniProt P00875). In words: Rubisco activation (carbamylation), initial rate analysis with non-activated enzyme. It is filed as biochemical. Also noted: Commercially available Rubisco from spinach (Sigma-Aldrich); catalogue # R8000; purchased Sigma-Aldrich R8000. The note with it: non-activated Rubisco pre-incubated with (+)-ABA; 1, 7, 20 mM NaHCO3; at least partially competitive; read-out: Ki for inhibition of Rubisco activation (Dixon analysis). The protocol: (§1) Commercially available Rubisco from spinach (Sigma-Aldrich; catalogue # R8000; S1 Fig; specific activity 0.05 units / mg) was dissolved in a buffer containing 15 mM MgCl2 and 25 mM NaHCO3 at pH 8.0 for activation. Each assay (total volume, 1.0 mL) contained 50 mM Bicine (pH 8.0), 15 mM MgCl2, 10 mM NaCl, 5 mm DTT, 5 mM phosphocreatine, 5 mM ATP, 5 mM phosphoenolpyruvate, and 25 mM NaHCO3. This mixture was prepared before each set of experiments. Five minutes before initiating the reaction with the addition of activated Rubisco, the following were added: RuBP at the indicated concentrations), 0.4 mM NADH, 20 units mL-^-1 of glyceraldehyde-3-phosphate dehydrogenase, 20 units mL-^-1 of 3-phosphoglycerate kinase, and 2 units mL^-1 of creatine phosphokinase. Following the addition of activated Rubisco to a final concentration of 0.3 mg mL^-1, the NADH concentration was measured spectrophotometrically (λ = 340 nm) at 5 s intervals for 5 min. Absorbance values were converted to NADH concentrations using an extinction coefficient of 6.22 mM^-1. Reaction rates were evaluated from the slope of absorbance vs. time curves and plotted against concentration of RuBP. […] The non-activated Rubisco was then pre-incubated on ice for at least 10 minutes with or without the indicated concentrations of (+)-ABA, and the reactions initiated and monitored as described above. […]

Test [2] has as its target T1, spinach Rubisco. In words: Isothermal titration calorimetry. The note with it: read-out: Kd by ITC; 20°C, 10 mM HEPES pH 7.9, Rubisco 39.42 μM, Independent binding model. In general terms: ITC needs no label: the signal is the heat of the interaction.
The target in test [3] is T1, spinach Rubisco. In words: Rubisco catalytic (carboxylation) activity, coupled spectrophotometric assay with pre-activated enzyme. To be noted: 10-1200 μM RuBP, non-competitive, read-out: Ki for inhibition of Rubisco catalysis (Dixon analysis). It is filed as biochemical. The arrangement: Commercially available Rubisco from spinach (Sigma-Aldrich); catalogue # R8000; purchased Sigma-Aldrich R8000. As for the experimental part:
as §1

We go through one substance from article PMC4510133, “Identification of Interactions between Abscisic Acid and Ribulose-1,5-Bisphosphate Carboxylase/Oxygenase” (PLoS ONE, 2015).

Several values for one entry are separate records, joined by “and”; a condition that tells them apart may be missing. Equal values may be shown once.

In general, Ki refers to a measure of affinity in units of concentration, obtained from inhibition or displacement. For orientation: Kd means a measure of binding affinity in units of concentration. Turning to Abscisic acid [(+)-ABA], the Ki in test [1] was ~130 µM and 130 µM; in test [3], 2100 µM and ~2100 µM. Besides, the Kd in test [2] is 11.1 µM.
